Earlier results on one substance are cited in patent US5792622A, “Assay for chemicals” (priority 1995, dated 1998).

The series deals with fish (trout fingerlings). Conditions: Table 8, trout fingerlings; cited from earlier work.

Consider Mercury, for which the “Fish LD50 (50% death of the fish)” value is given as 0.01-.9 ppm.
